Measurements reported in US8101734.

Protein sequences, listed by entry. Tags and fused reporters are not part of them.
UniProt Q92847, whole entry: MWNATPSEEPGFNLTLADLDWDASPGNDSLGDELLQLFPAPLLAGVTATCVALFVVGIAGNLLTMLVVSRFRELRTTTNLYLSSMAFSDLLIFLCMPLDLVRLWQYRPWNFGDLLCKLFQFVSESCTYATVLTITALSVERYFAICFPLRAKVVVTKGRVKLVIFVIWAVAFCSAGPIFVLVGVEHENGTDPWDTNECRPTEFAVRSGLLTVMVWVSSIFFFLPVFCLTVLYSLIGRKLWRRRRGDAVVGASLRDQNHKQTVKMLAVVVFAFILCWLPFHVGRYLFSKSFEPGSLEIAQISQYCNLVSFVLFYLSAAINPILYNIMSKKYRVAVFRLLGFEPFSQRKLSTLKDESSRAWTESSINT

Target: human growth hormone secretagogue receptor (GHS-R1a) (human) (UniProt Q92847)
Assay: cell-based or functional assay

desoctanoyl-ghrelin (peptide) was tested, and the calcium release (fluo-4 fluorescence) in CHO cells expressing human GHS-R1a was 300 nM and the effect on octanoyl-ghrelin-induced calcium release in CHO cells expressing human GHS-R1a was 300 nM.
